Assay results as given in patent US8580321B2, “Method for reducing the effects of chemotherapy using flagellin related polypeptides” (priority 2003, dated 2013).

Test system: NF-κB
Experiment: EMSA of NF-κB translocation / DNA binding in A549 cells
Conditions: 1 μg/ml, 45 min, EMSA of whole cell extracts

B1: GST-B′: GST-Linker-(402-450), SEQ ID NO: 28 (protein)
chain: MSPILGYWKIKGLVQPTRLLLEYLEEKYEEHLYERDEGDKWRNKKFELGLEFPNLPYYIDGDVKLTQSMAIIRYIADKHNMLGGCPKERAEISMLEGAVLDIRYGVSRIAYSKDFETLKVDFLSKLPEMLKMFEDRLCHKTYLNGDHVTHPDFMLYDALDVVLYMDPMCLDAFPKLVCFKKRIEAIPQIDKYLKSSKYIAWPLQGWQATFGGGDHPPKSDLVPRGSPGISGGGGGILDSMGTLINEDAAAAKKSTANPLASIDSALSKVDAVRSSLGAIQNRFDSAITNL
modifications: Salmonella dublin
- NF-κB Stimulation: No
